The results in this text go back to ChEMBL document CHEMBL1158437, “The discovery of the potent aurora inhibitor MK-0457 (VX-680)” (Bioorg Med Chem Lett, 2009).

Sequences of proteins named here, by UniProt entry; tags and fusion partners are left off. A change or cut given only in a name is not applied to a line headed by its entry.
UniProt P49841: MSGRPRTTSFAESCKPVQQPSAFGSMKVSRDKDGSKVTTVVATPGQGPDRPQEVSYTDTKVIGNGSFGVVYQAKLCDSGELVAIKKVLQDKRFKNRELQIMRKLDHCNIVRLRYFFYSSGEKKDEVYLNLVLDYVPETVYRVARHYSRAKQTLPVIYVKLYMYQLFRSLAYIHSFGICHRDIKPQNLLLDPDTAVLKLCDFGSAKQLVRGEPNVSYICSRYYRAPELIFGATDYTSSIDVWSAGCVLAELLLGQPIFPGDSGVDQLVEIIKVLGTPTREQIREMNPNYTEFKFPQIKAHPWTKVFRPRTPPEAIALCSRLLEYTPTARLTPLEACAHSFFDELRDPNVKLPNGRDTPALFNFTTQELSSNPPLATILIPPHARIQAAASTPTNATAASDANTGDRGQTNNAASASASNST
UniProt P12931: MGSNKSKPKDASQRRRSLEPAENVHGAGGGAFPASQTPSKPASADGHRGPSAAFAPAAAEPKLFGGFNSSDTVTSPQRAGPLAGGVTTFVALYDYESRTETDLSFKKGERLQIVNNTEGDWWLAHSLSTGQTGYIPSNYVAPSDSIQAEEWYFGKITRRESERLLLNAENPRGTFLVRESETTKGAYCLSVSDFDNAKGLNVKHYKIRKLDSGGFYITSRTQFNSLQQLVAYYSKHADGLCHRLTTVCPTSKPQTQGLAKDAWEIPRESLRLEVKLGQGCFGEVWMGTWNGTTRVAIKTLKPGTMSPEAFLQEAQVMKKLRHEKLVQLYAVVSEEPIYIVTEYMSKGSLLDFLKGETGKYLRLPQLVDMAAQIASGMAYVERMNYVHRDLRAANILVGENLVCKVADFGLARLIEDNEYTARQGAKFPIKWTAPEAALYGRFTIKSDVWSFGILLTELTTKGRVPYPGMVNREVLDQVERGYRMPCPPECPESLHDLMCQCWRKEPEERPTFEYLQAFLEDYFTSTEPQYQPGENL

One may read the Ki as the dissociation constant of the complex between target and ligand, obtained from inhibition or displacement.

The target in experiment [1] is T1, Aurora kinase A (Homo sapiens, UniProt O14965).
T1 sequence (O14965 whole entry): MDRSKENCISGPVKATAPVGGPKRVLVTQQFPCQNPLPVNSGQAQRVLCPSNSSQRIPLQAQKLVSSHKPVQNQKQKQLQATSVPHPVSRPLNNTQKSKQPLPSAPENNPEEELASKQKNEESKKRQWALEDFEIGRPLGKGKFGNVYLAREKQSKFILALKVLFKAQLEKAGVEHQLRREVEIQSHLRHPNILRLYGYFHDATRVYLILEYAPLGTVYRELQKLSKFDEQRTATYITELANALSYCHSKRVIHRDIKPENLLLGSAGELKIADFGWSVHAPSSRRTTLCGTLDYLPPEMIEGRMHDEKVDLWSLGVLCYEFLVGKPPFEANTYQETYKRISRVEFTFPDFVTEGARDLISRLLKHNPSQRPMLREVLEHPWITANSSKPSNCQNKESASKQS

The target in experiment [2] is Glycogen synthase kinase-3 beta (Homo sapiens, UniProt P49841).
Experiment [3] deals with Proto-oncogene tyrosine-protein kinase Src (Homo sapiens, UniProt P12931). Nature of the experiment: Inhibition of Src.

`Cc1cc(Nc2nc(Sc3ccccc3)nc3ccccc23)n[nH]1`: the Ki in experiment [1] worked out at 20 nM; in experiment [2], 171 nM; in experiment [3], 800 nM.

Take `Cc1cc(Nc2nc(N(C)c3ccccc3)nc3ccccc23)n[nH]1`: the results for the Ki in experiment [1], in experiment [2] and in experiment [3] were 17 nM, 312 nM and 1060 nM, respectively.

On to `Cc1cc(Nc2nc(Sc3ccc(Cl)cc3Cl)nc3ccccc23)n[nH]1`, for which the Ki in experiment [1] worked out at 2 nM; in experiment [2], 8 nM.

Take `COc1ccccc1Sc1nc(Nc2cc(C)[nH]n2)c2ccccc2n1`: the Ki in experiment [1] stood at 24 nM; in experiment [2], 216 nM.

In experiment [3], `Cc1cc(Nc2nc(Sc3ccc(NS(C)(=O)=O)cc3)nc3ccccc23)[nH]n1` registered a Ki of 681 nM.

For the compound `Cc1cc(Nc2nc(Nc3ccccc3)nc3ccccc23)n[nH]1`, the Ki in experiment [1] was 24 nM; in experiment [2], 24 nM; in experiment [3], 393 nM.

As to `Cc1cc(Nc2nc(Sc3ccc(Cl)c(Cl)c3)nc3ccccc23)n[nH]1`, the Ki was 2 nM in experiment [1] and above 15 nM in experiment [2].

For `COc1ccc(Sc2nc(Nc3cc(C)[nH]n3)c3ccccc3n2)cc1`, the Ki in experiment [1] was determined as 9 nM; in experiment [2] it was 124 nM.

In experiment [1], `Cc1cc(Nc2nc(Sc3ccc(NC(=O)OC(C)(C)C)cc3)nc3ccccc23)n[nH]1` had a Ki of 9 nM.

On to `Cc1cc(Nc2nc(Sc3ccc4ccccc4c3)nc3ccccc23)n[nH]1`, for which, in experiment [1], the Ki amounted to 1 nM.

With `CC(=O)Nc1ccc(Sc2nc(Nc3cc[nH]n3)c3ccccc3n2)cc1`, the Ki in experiment [1] came out at 24 nM; in experiment [2] it was 605 nM; in experiment [3] it was 277 nM.

Consider `CC(=O)Nc1ccc(Sc2nc(Nc3cc(C4CC4)[nH]n3)c3ccccc3n2)cc1`, for which the Ki in experiment [1] is below 1 nM; in experiment [2], 338 nM; in experiment [3], 1740 nM.

Turning to `Cc1cc(Nc2nc(Sc3c(Cl)cccc3Cl)nc3ccccc23)n[nH]1`, the Ki in experiment [1] came out at 5 nM; in experiment [2], 113 nM.

Take `Cc1cc(Nc2nc(Sc3ccc(Cl)cc3)nc3ccccc23)n[nH]1`: the Ki came out at 6 nM in experiment [1] and 44 nM in experiment [2].

Consider `Cc1cc(Nc2nc(Sc3ccccc3Cl)nc3ccccc23)n[nH]1`, for which the results for the Ki in experiment [1] and in experiment [2] were 5 nM and 126 nM, respectively.

With `Cc1cc(Nc2nc(Sc3cccc(Cl)c3)nc3ccccc23)n[nH]1`, the results for the Ki in experiment [1] and in experiment [2] were 4 nM and 33 nM, respectively.

For the compound `COc1ccc(Sc2nc(Nc3cc(C)[nH]n3)c3ccccc3n2)cc1OC`, the Ki was 17 nM in experiment [1], 1170 nM in experiment [2] and 2180 nM in experiment [3].

As to `Cc1cc(Nc2nc(Sc3ccc(NC(=O)C4CC4)cc3)nc3ccccc23)n[nH]1`, the Ki in experiment [1] is below 1 nM; in experiment [2], 1310 nM.

Regarding `Cc1cc(Nc2nc(Sc3cccc(Cl)c3Cl)nc3ccccc23)n[nH]1`, the results for the Ki in experiment [1] and in experiment [2] were 3 nM and 48 nM, respectively.

For the compound `CCC(=O)Nc1ccc(Sc2nc(Nc3cc(C)[nH]n3)c3ccccc3n2)cc1`, the Ki in experiment [1] is 1 nM; in experiment [2], 1500 nM; in experiment [3], 720 nM.

Regarding `Cc1cc(Nc2nc(Oc3ccccc3)nc3ccccc23)n[nH]1`, the figures for the Ki in experiment [1], in experiment [2] and in experiment [3] were 36 nM, 51 nM and 1290 nM, respectively.
